## Antibody variant affinities, Ab-95 light chain, assay 2

From the AlphaSeq antibody data of Engelhart et al. 2022 (doi:10.1038/s41597-022-01779-4), copy in the FLAb collection.

Antigen: PDVDLGDISGINAS, a 14-residue peptide of the SARS-CoV-2 spike HR2 region.

Each scFv is VH, the linker GGGGSGGGGSGGGGS, VL, as in the parent Ab-95, and differs from it in the CDRs of the light chain only.
VH: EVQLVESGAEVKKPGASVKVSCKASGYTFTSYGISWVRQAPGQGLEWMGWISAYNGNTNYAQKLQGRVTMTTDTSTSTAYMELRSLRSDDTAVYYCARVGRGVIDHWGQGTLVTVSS
VL: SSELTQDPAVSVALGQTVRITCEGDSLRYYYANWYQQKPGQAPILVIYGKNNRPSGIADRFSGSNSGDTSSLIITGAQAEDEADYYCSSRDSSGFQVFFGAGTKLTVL

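The starting antibody came from a phage panning campaign against this peptide. The library (AAYL52) carries one to three amino acid substitutions per variant, with no insertions or deletions. In AlphaSeq, yeast of one mating type display the scFv and yeast of the other type display the target. The frequency of each diploid, read from paired DNA barcodes, reflects how well the two displayed proteins bind. Each replicate has its own calibration line, from reference interactions of the BCL2 family. Each pool was mated in three replicate cultures.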

Each variant is given by its three light chain CDRs, as the data file delimits them; those of the parent are EGDSLRYYYAN, GKNNRPS, SSRDSSGFQVF. The read-out is the apparent dissociation constant on a log10 scale (nM): the lower, the stronger. A mean of the replicates is given; it leaves out those without a signal. A pair that was not seen in that replicate is written "ND"; this usually means weak binding, but a binder can also be missed. Empty control strains, which show no peptide, gave a signal in 28% of pairings with library AAYL52; the median was 3.91 and 95% of these signals were weaker than 2.90. No background was subtracted. The control count says in how many pairings with the empty strains this scFv gave a signal, with their mean in brackets. For reference, the parent read 2.31 as the reference entry and 2.25 as a member of this library.

CDR-L1,CDR-L2,CDR-L3,"log10 Kd, replicates",mean log10 Kd (nM),signal with controls
EGDSLRYYYAN,GKNKRPS,SSRDVSFFQVF,2.84 / 4.08 / 4.48,3.80,0 of 9
EGDSLRYYDAN,EYNNRPS,SSRDSSGFQVF,2.95 / 3.03 / 2.65,2.88,5 of 9 (3.53)
EGDRLRYYYAN,GKANRPS,SSRDSSGFQVF,ND / 3.20 / ND,3.20,4 of 9 (3.54)
EGDSLRYQYAN,GKENRPS,SSADSSGFQVF,ND / ND / ND,ND,2 of 9 (3.57)
EGDSLRYYYAN,GKNNRPS,SRRFSSGFQVF,2.59 / 2.15 / 2.17,2.30,3 of 9 (4.15)
EGDSLRPYYAY,GKNNRPS,SSYDSSGFQVF,3.94 / 4.05 / ND,3.99,5 of 9 (3.65)
EGDALREYYAN,GKNKRPS,SSRDSSGFQVF,3.20 / 3.35 / 2.27,2.94,3 of 9 (4.10)
ELDSLRYYYAN,GKNNRPH,SYRDSSGFQVF,ND / ND / 4.22,4.22,3 of 9 (3.81)
EGDSLRYYYAR,GKGNRPS,SSRDSSGFQVF,2.63 / 2.99 / 1.76,2.46,4 of 9 (4.51)
GRDSLRYYYAN,GKNNRPS,SSRPSSGFQVF,4.51 / ND / ND,4.51,5 of 9 (3.90)
EGDSLRYYYAN,MKNNRPT,SSRDSSSFQVF,ND / ND / ND,ND,1 of 9 (3.95)
EGDSLRYYYAN,GKNNNPS,SSNDSSGFQAF,4.29 / ND / ND,4.29,4 of 9 (3.68)
EGDSLRYFLAN,GKNFRPS,SSRDSSGFQVF,3.44 / 4.03 / 4.26,3.91,4 of 9 (4.59)
EGSSLRYYYAN,GKNNSPS,SGRDSSGFQVF,2.89 / 3.50 / 2.29,2.90,5 of 9 (3.83)
EGDSLRYTYLW,GKNNRPS,SSRDSSGFQVF,3.42 / ND / ND,3.42,3 of 9 (3.60)
EGDSLRYYYAN,GKNRRPS,SSRGSSGFIVF,3.22 / 3.48 / ND,3.35,5 of 9 (4.07)
EGDSLRYYYDN,GKNNRPS,SSRDSQGFQVF,3.82 / 3.92 / 3.04,3.59,1 of 9 (4.42)
EGDSLRYYYAN,GKNNRPS,SSRDSSGPQVF,3.14 / 2.57 / 2.21,2.64,3 of 9 (3.98)
EGDSLRYYYAN,GKNVRPS,SSHDSSGFQSF,2.93 / 2.37 / 2.52,2.61,4 of 9 (3.91)
EGDSRMYCYAN,GKNNRPS,SSRDSSGFQVF,4.12 / 3.37 / ND,3.74,4 of 9 (4.35)
EGDSFRYYYAN,GKNNRPS,SSCISSGFQVF,ND / ND / ND,ND,3 of 9 (3.90)
EGFSLRYYYAN,GSNNRPS,SSRKSSGFQVF,2.91 / ND / ND,2.91,3 of 9 (4.29)
EGDFLRYYMAN,GKNNNPS,SSRDSSGFQVF,3.79 / 3.42 / 4.16,3.79,1 of 9 (4.70)
TGDSLRYYYAN,GKNNIPS,SSRDSSDFQVF,ND / 5.44 / ND,5.44,4 of 9 (3.49)
EGRSLRYYGAN,GKDNRPS,SSRDSSGFQVF,1.79 / 1.73 / 1.29,1.60,5 of 9 (3.85)
EGHSLRYYYIN,GKNNRPL,SSRDSSGFQVF,3.20 / ND / ND,3.20,0 of 9
EVDSLRYYYHN,GKNNRPS,SSRESSGFQVF,3.94 / 3.95 / ND,3.95,3 of 9 (3.80)
EGDSLRYYYAN,GKNNRPS,SSRSSSGFQGC,3.42 / 3.01 / ND,3.21,1 of 9 (4.00)
EGDSLRNYNAN,GKNNRPS,SSRDSSGFQVQ,0.58 / 0.99 / 0.18,0.58,1 of 9 (3.84)
EKDSLRYYYAN,GKWNPPS,SSRDSSGFQVF,3.60 / 4.09 / 3.51,3.73,7 of 9 (3.90)
EGDSLRYYYAN,GANNRPS,SSCDSSWFQVF,2.26 / 2.99 / 2.15,2.46,4 of 9 (4.66)
EGDSLIYYYAN,GKRNRPS,SSRDWSGFQVF,4.16 / ND / 4.22,4.19,5 of 9 (3.92)
EGGSLRYYYAN,GKNERPS,SSRDSSWFQVF,2.30 / 1.84 / 1.50,1.88,2 of 9 (4.09)
EGDSLRYYYCN,GKNNRPS,SSTDSSGFQVR,3.06 / 3.01 / 2.57,2.88,6 of 9 (3.80)
EGDSYRYYIAN,GKNNWPS,SSRDSSGFQVF,ND / ND / ND,ND,3 of 9 (3.81)
QGDSLRYYYAN,GKNNRPI,SQRDSSGFQVF,2.37 / 2.42 / 2.77,2.52,2 of 9 (3.51)
SGDSLRYYYAN,GKNNRPS,SDNDSSGFQVF,4.67 / ND / ND,4.67,2 of 9 (4.18)
EGDSLRYYYAN,QKNLRPS,SSRDSSGFQVF,2.85 / 4.93 / ND,3.89,0 of 9
EGDSLRYYYAN,GKNNRPM,SSRDSSGFYVF,2.22 / 2.10 / 2.18,2.17,1 of 9 (3.29)
EGDSPRYYYAN,GKNNRPS,SSRDSSGKQVP,ND / 2.82 / ND,2.82,5 of 9 (3.62)
EGDSLRYYYSN,GKNNRPS,SSRDSSGFQFF,2.34 / 3.06 / 2.34,2.58,4 of 9 (3.83)
EGDSLRYYYAI,DKENRPS,SSRDSSGFQVF,2.73 / ND / ND,2.73,0 of 9
EGDSLRYSYAN,GKNNRPW,WSRDSSGFQVF,2.11 / 1.54 / 1.78,1.81,3 of 9 (4.43)

The last 5 entries again:

CDR-L1	CDR-L2	CDR-L3	log10 Kd, replicates	mean log10 Kd (nM)	signal with controls
EGDSLRYYYAN	GKNNRPM	SSRDSSGFYVF	2.22 / 2.10 / 2.18	2.17	1 of 9 (3.29)
EGDSPRYYYAN	GKNNRPS	SSRDSSGKQVP	ND / 2.82 / ND	2.82	5 of 9 (3.62)
EGDSLRYYYSN	GKNNRPS	SSRDSSGFQFF	2.34 / 3.06 / 2.34	2.58	4 of 9 (3.83)
EGDSLRYYYAI	DKENRPS	SSRDSSGFQVF	2.73 / ND / ND	2.73	0 of 9
EGDSLRYSYAN	GKNNRPW	WSRDSSGFQVF	2.11 / 1.54 / 1.78	1.81	3 of 9 (4.43)